Protein sequences, listed by entry. Tags and fused reporters are not part of them. Lines headed by an entry give the natural chain unless they say otherwise; changes in a name come on top.
UniProt P41146: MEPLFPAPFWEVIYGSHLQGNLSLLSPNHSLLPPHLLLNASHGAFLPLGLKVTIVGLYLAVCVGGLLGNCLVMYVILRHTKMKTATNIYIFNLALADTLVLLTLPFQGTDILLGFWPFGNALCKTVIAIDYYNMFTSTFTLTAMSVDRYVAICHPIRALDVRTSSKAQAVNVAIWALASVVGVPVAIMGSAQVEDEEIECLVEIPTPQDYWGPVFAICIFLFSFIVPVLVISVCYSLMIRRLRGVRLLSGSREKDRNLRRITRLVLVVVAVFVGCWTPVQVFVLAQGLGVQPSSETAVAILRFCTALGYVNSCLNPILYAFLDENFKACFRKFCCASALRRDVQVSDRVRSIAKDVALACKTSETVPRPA
UniProt P35372, whole entry, looked up: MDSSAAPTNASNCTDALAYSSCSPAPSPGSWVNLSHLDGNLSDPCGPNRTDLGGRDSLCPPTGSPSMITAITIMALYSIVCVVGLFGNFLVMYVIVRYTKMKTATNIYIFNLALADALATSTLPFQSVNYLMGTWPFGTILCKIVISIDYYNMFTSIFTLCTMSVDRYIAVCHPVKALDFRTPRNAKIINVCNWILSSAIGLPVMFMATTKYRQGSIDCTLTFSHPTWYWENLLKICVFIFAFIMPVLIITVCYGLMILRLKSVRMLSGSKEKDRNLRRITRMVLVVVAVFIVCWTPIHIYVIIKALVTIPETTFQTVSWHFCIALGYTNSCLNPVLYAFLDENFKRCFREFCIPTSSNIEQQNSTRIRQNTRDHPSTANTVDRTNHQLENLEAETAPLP

In ChEMBL document CHEMBL5728057, “3-((hetero-)aryl)-8-amino-2-oxo-1,3-diaza-spiro-[4.5]-decane derivatives” (2020):

Legend:
[1] = target: Nociceptin receptor (Homo sapiens, UniProt P41146); test: Human Nociceptin/Orphanin FQ Peptide (hNOP) Receptor Binding Assay: The hNOP receptor binding assay was performed as homogeneous SPA-assay (scintillation proximity assay) using the assay buffer 50 mM TRIS-HCl. 10 mM MgCl2. 1 mM EDTA (pH 7.4). The final assay volume (250 μl/well) included 0.5 nM of [leucyl-3H]nociceptin as ligand (PerkinElmer Life Sciences. Inc. Boston. Mass. USA). and either test
[2] = target: Mu-type opioid receptor (Homo sapiens, UniProt P35372); test: Human Mu-Opioid Peptide (hMOP) Receptor Binding Assay: The hMOP receptor binding assay was performed as homogeneous SPA-assay (scintillation proximity assay) using the assay buffer 50 mM TRIS-HCl (pH 7.4) supplemented with […] bovine serum albumin (Sigma-Aldrich Co. St. Louis. Mo.). The final assay volume (250 l/well) included 1 nM of [N-allyl-2.3-3H]naloxone as ligand (PerkinElmer Life Sc

Row | SMILES | Ki [1] | Ki [2]
1 | COCCN1C(=O)N(c2ccnc(C#N)n2)C[C@]12CC[C@](c1ccccc1)(N(C)C)CC2 | 13.9 nM | –
2 | CN(C)[C@]1(c2ccccc2)CC[C@]2(CC1)CN(c1cnc(C(N)=O)nc1)C(=O)N2 | 119 nM | –
3 | CN(C)[C@]1(c2ccccc2)CC[C@]2(CC1)CN(c1cnc(-c3ccc(F)cc3)nc1)C(=O)N2 | 13 nM | –
4 | CN(C)[C@]1(c2ccccc2)CC[C@]2(CC1)CN(c1cnc(N3CCS(=O)(=O)CC3)nc1C(F)(F)F)C(=O)N2 | 83 nM | –
5 | CN(C)[C@]1(c2ccccc2)CC[C@]2(CC1)CN(c1ncc(C(F)(F)F)cc1C(F)(F)F)C(=O)N2 | 53 nM | –
6 | CN[C@]1(c2cccc(F)c2)CC[C@]2(CC1)CN(c1ccc(S(C)(=O)=O)cn1)C(=O)N2CC1CC1 | 8 nM | –
7 | COC(=O)c1ccc(N2C[C@]3(CC[C@](c4ccccc4)(N(C)C)CC3)N(CC3CCC3)C2=O)cc1 | 8 nM | –
8 | CN(C)[C@]1(c2ccccc2)CC[C@]2(CC1)CN(c1ccc(OC(F)(F)F)cc1F)C(=O)N2 | 53 nM | –
9 | COc1cccc([C@]2(N(C)C)CC[C@@]3(CC2)CN(c2cnc(C(F)(F)F)cc2C)C(=O)N3)c1 | 195 nM | –
10 | CN(C)[C@]1(c2ccccc2)CC[C@]2(CC1)CN(c1cnc(-c3cc(F)c(F)c(F)c3)nc1)C(=O)N2 | 335 nM | –
11 | Cc1cc(C(F)(F)F)ncc1N1C[C@]2(CC[C@@](c3cccs3)(N(C)C)CC2)NC1=O | 11 nM | –
12 | CN(C)C(=O)CN1C(=O)N(c2ccnc(C#N)n2)C[C@]12CC[C@](c1ccccc1)(N(C)C)CC2 | 85 nM | –
13 | CN(C(=O)C1CC1)c1ncc(N2C[C@]3(CC[C@](c4ccccc4)(N(C)C)CC3)NC2=O)cn1 | 19 nM | –
14 | CN(C)[C@]1(c2ccccc2)CC[C@]2(CC1)CN(c1ccccc1F)C(=O)N2 | 41 nM | –
15 | CN(C)[C@]1(c2ccccc2)CC[C@]2(CC1)CN(c1cnc(O)nc1)C(=O)N2CC1(O)CCC1 | 7.7 nM | –
16 | COC(=O)COc1ccccc1N1C[C@]2(CC[C@](c3ccccc3)(N(C)C)CC2)NC1=O | 30 nM | –
17 | CN(C)[C@]1(c2ccccc2)CC[C@]2(CC1)CN(c1c[nH]c3ccccc13)C(=O)N2 | 13 nM | –

Row | SMILES | Ki [1] | Ki [2]
18 | CN[C@]1(c2ccccc2)CC[C@]2(CC1)CN(c1ccc(C#N)cc1OC)C(=O)N2 | 460 nM | –
19 | CN(C)[C@]1(c2ccccc2)CC[C@]2(CC1)CN(c1cccc(C(F)(F)F)c1)C(=O)N2 | 27 nM | –
20 | CN(C)[C@]1(c2ccccc2)CC[C@]2(CC1)CN(c1cnc(N3CCN(CC(=O)O)CC3)nc1)C(=O)N2 | 52 nM | –
21 | CN(C)[C@]1(c2ccccc2)CC[C@]2(CC1)CN(c1ccc(S(C)(=O)=O)cc1)C(=O)N2 | 38 nM | –
22 | CN(C)[C@]1(c2ccccc2)CC[C@]2(CC1)CN(c1cnc(N3CCOCC3)cc1C#N)C(=O)N2 | 24 nM | –
23 | CN(C)[C@]1(c2ccccc2)CC[C@]2(CC1)CN(c1cnc(NCc3ccccc3)nc1)C(=O)N2 | 19 nM | –
24 | CN(C)[C@]1(c2ccccc2)CC[C@]2(CC1)CN(c1cnc(N3CCOCC3)nc1)C(=O)N2 | 30 nM | –
25 | CN[C@]1(c2ccccc2)CC[C@]2(CC1)CN(c1cnc(C#N)nc1)C(=O)N2CC1(O)CCC1 | 8 nM | –
26 | Cc1cc(F)cc([C@]2(N(C)C)CC[C@@]3(CC2)CN(c2cnc(C(F)(F)F)cc2C)C(=O)N3)c1 | 14 nM | –
27 | CN(C)[C@]1(c2ccccc2)CC[C@]2(CC1)CN(c1cccc3[nH]ccc13)C(=O)N2 | 20 nM | –
28 | CN(C)[C@]1(c2ccccc2)CC[C@]2(CC1)CN(c1cnc(NC(=O)c3cccs3)nc1)C(=O)N2 | 15 nM | –
29 | CN(C)[C@]1(c2ccccc2)CC[C@]2(CC1)CN(c1cnc(C(F)(F)F)cc1C(F)(F)F)C(=O)N2 | 13 nM | –
30 | CCCNC(=O)CN1C(=O)N(c2cnc(C#N)nc2)C[C@]12CC[C@](c1ccccc1)(N(C)C)CC2 | 119 nM | –
31 | CN(C)[C@]1(c2ccccc2)CC[C@]2(CC1)CN(c1cnc(C#N)nc1)C(=O)N2CC1CC1 | 10.8 nM | –
32 | CN(C)[C@]1(c2ccccc2)CC[C@]2(CC1)CN(c1ccc(S(C)(=O)=O)cc1F)C(=O)N2CC1CC1 | – | 115 nM
33 | CN(C)[C@]1(c2cccc(F)c2)CC[C@]2(CC1)CN(c1cnc(C(=O)NCC3CCC3)nc1)C(=O)N2CC1CCC1 | – | 136 nM
34 | COC(=O)c1cc(C)c(N2C[C@]3(CC[C@](c4ccccc4)(N(C)C)CC3)N(CC3CCC3)C2=O)cn1 | – | 55 nM
